Earlier results, collected in PMC3190643 (2011).

What was measured:
MMP-9 = details: read-out: Ki, MMP-9; reported earlier; cited from earlier work
MMP-14 = details: read-out: Ki, MMP-14; reported earlier; cited from earlier work
MMP-1 = details: read-out: Ki, MMP-1; reported earlier; cited from earlier work
MMP-3 = details: read-out: Ki, MMP-3; reported earlier; cited from earlier work

CC(=O)Nc1ccc(Oc2ccc(S(=O)(=O)CC3CS3)cc2)cc1 (stereo not shown) [Compound M3]
Ki (MMP-9): 0.13 ± 0.01 µM | Ki (MMP-14): 0.68 ± 0.05 µM | Ki (MMP-1): 5.4 ± 0.4 µM | Ki (MMP-3): 12.2 ± 0.9 µM
